Results as given in patent publication US8877791B2, “Inhibitors of pyruvate kinase and methods of treating disease” (Beth Israel Deaconess Medical Center, Inc., priority 2006, dated 2014).

By UniProt entry, the sequences of proteins in these tests, tags left out. Chains listed by the source or under a name are the forms on record and can include a tag or linker.
UniProt P14618, whole entry: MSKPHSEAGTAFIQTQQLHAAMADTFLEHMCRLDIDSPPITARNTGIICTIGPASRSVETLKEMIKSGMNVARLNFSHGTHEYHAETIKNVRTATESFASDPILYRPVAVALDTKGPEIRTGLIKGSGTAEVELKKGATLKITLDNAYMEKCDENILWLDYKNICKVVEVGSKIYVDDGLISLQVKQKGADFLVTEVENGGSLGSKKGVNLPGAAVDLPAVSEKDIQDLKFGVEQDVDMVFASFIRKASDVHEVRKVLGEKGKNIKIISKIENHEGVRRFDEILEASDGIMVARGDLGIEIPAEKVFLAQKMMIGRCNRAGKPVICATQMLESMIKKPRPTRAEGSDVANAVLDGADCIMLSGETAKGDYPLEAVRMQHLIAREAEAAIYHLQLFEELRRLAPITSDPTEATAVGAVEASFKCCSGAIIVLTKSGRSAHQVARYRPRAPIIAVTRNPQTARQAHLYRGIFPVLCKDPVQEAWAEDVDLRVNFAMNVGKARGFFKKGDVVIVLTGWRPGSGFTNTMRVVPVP
UniProt P14618, with tags, fused parts or gaps limits assumed: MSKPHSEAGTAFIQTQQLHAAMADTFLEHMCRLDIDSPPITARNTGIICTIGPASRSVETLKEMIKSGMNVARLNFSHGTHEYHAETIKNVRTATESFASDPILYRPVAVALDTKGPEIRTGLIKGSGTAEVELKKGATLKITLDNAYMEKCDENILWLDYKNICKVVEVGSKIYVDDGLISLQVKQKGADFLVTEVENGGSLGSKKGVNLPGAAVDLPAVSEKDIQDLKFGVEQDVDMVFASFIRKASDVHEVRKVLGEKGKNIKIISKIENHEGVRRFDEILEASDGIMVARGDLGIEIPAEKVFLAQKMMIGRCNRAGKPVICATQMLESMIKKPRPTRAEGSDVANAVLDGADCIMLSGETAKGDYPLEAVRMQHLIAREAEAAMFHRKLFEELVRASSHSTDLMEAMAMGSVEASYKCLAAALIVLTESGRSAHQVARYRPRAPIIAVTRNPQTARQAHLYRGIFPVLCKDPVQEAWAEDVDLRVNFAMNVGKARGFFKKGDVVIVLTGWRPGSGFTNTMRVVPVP

Assays:
[1] = system: H1299 and A549 human lung cancer cells; assay: Killing of human lung cancer cell lines by increasing concentrations of compound; details: read-out: IC50 in vivo, concentration required to kill >90% of the cells
Method: (§1) For in vitro studies, recombinant pyruvate kinase was incubated with the compound indicated (Table 2) and the activity of the enzyme assessed, as described in Example 4. To determine the IC50, enzyme activity was determined at various concentrations of inhibitor. The percentages shown in Table 2 reflect the inhibition of enzyme activity relative to the absence of compound when the enzyme is incubated with 50 μM of the compound indicated. For in vivo studies, human lung cancer cell lines were incubated with increasing concentrations of the compound indicated and the concentration required to kill >90% of the cells is reported.
Human lung cancer cells were exposed to increasing concentrations of candidate compounds A2 and D1. The toxicity of the compounds was measured by determining the percentage of surviving cells. Cells were mock-treated with DMSO as a control. […] depicts the toxicity of compounds A2 (FIG. 8a) and D1 (FIG. 8b) in H1299 cells compared to mock treatment with DMSO.

PKM2 = PKM2 (Homo sapiens (Human), UniProt P14618); assay: Recombinant PKM2 enzyme activity in the presence of FBP (LDH-coupled NADH consumption); details: screening concentration estimated at 50 μM
Method: (§2) Recombinant PKM1 and PKM2 were expressed in E. coli and purified using an Ni-NTA column according to standard protocols. PKM2 ([…]) was mixed with the following components: 0.6 mM ADP, 0.5 mM phosphoenolpyruvate, 200 μM NADH, 1-4 units of lactate dehydrogenase, 50 μM FBP, 1 mM DTT, 0.02% Brij 35, 5% glycerol, and the test molecule with a final DMSO concentration of 5%. A control reaction lacked the test molecule. The test molecules used in this example were selected from a library containing over 100,000 compounds.
Primary screening was performed using PKM2 in the presence of FBP. […] Activity was measured by monitoring the concentration of NADH. Pyruvate, produced by the enzymatic activity of pyruvate kinase, is converted into lactate by lactate dehydrogenase, which requires the consumption of NADH (NADH→NAD^+). Thus, the activity of PKM2 was indirectly measured by monitoring the consumption of NADH through fluorescence assays. Additionally, the activity of the PKM2 enzyme was directly monitored by measuring the production of ATP, as ATP is produced when phosphoenolpyruvate is converted to pyruvate by PKM2.
For in vitro studies, recombinant pyruvate kinase was incubated with the compound indicated (Table 2) and the activity of the enzyme assessed, as described in Example 4. To determine the IC50, enzyme activity was determined at various concentrations of inhibitor. […]

PKM1 = PKM1 (Homo sapiens (Human), UniProt P14618); assay: Recombinant PKM1 enzyme activity (same screening method); details: screening concentration estimated at 50 μM
Method: as §2
This same screening method was then used to retest candidate molecules for the inhibition of PKM1 to determine which candidate compounds are active against PKM2, but not PKM1.
as §1

FL5.12 cells = assay: Toxicity in FL5.12 cells with and without growth factor (IL-3); details: twenty hours of treatment, presence and absence of IL-3
Method: Mouse pre-lymphocyte cells (FL5.12 cells) were treated with candidate compounds A2 (FIG. 9a) and D1 (FIG. 9b) for twenty hours in the presence and absence of growth factor (IL-3).

PKM2 inhibition of enzyme activity relative to the absence of compound (PKM2) [%]	PKM1 inhibition of enzyme activity relative to the absence of compound (PKM1) [%]	Structure (SMILES)	IC50 [1] [µM]	Toxicity in FL5.12 cells, effect of growth factor withdrawal (FL5.12 cells)
50	0	Cc1ccc(C)n1-c1ccc(Cl)c(C(=O)O)c1	> 100	–
50	15	Cc1ccc(C)n1-c1ccc(O)c(C(=O)O)c1	250	Growth factor withdrawal increases the toxicity
–	–	CSc1ccc(C(=O)O)s1	90	–
